Results as given in patent US20030211537A1 (ARCH DEVELOPMENT, published 2003).
Like-named read-outs stand apart in the source and are kept apart here.

Sequences of proteins named here, by UniProt entry; tags and fusion partners are left off. A change or cut given only in a name is not applied to a line headed by its entry.
UniProt P01210: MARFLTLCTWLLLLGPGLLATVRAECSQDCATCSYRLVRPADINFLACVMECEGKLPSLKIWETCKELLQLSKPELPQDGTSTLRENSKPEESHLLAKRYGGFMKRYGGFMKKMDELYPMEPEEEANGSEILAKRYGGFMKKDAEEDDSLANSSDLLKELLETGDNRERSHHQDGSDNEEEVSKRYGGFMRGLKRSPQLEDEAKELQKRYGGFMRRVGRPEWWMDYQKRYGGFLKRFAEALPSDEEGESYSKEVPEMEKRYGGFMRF

Key:
rat µ opioid receptor = target: T1, rat µ opioid receptor (rat, UniProt P33535 1-398); test: competition vs [3H]DAMGO, COS-7 membranes
T1 construct: whole, on cells; Assayed in membranes of transfected COS-7 cells; also called cloned µ receptor; rat µ receptor

[1] = target: T2, cloned human µ opioid receptor (human, UniProt P35372 1-400); test: competition vs [3H]DAMGO, COS-7 membranes
[2] = target: T3, D128N mutant mouse delta opioid receptor (mouse, UniProt P32300 1-372); test: competition vs 3H-naltrindole, COS-7 membranes
T3 construct: Expressed in COS-7 cells, membranes assayed; also called D128 mutant

[3] = target: T4, mouse delta opioid receptor (mORD1) (mouse, UniProt P32300 1-372); test: competition vs 3H-naltrindole, COS-7 membranes
T4 construct: Assayed in membranes of transfected COS-1, CHO-DG44 or COS-7 cells; also called msl-2; δ receptor

[4] = target: T5, H278N mutant mouse delta opioid receptor (mouse, UniProt P32300 1-372); test: competition vs 3H-naltrindole, COS-7 membranes
T5 construct: Expressed in COS-7 cells, membranes assayed

[5] = target: T2, cloned human µ opioid receptor; test: competition vs [3H]DAMGO, COS-7 membranes; remark: listed apart in the source
[6] = target: T4, mouse delta opioid receptor (mORD1); test: competition vs [3H]naltrindole, COS-1 membranes

B1: β-Endorphin (human) (peptide, UniProt P01189 237-267, looked up)
peptide: YGGFMTSEKSQTPLVTLFKNAIIKNAYKKGE
modifications: 125I-labelled where used as radioligand
notes: domain: β-Endorphin; also called beta-endorphin
- Ki (rat µ opioid receptor): 1.7 nM
- Ki [1]: 0.94 nM
- Ki [2]: 15800 nM
- Ki [3]: 26 nM
- Ki [4]: 8.1 nM
- Ki [5]: 0.94 nM
- IC50 [6]: 15.3 nM

B2: Met-enkephalin (peptide, UniProt P01210 100-104, looked up)
peptide: YGGFM
notes: domain: Met-enkephalin
- IC50 [6]: 41 nM
